From US8822419B2, “Membrane resident peptide in anti-cancer peptides causes tumor cell necrosis rather than apoptosis of cancer cells” (The Research Foundation of State University of New York, priority 2008, dated 2014)

What was measured:
MiaPaCa-2 cells [1] = assay: LDH release into cell culture medium (CytoTox96) as marker for necrosis; assay type: cell-based, human; conditions: MiaPaCa-2 cells transfected with plasmid, 24 h, FIG. 8B condition 3
Description: (§1) Cells from culture plates at 18, 44, 66 and 90 h time points were lysed in situ in cell lysis buffer [1% Triton X-100 in 0.05 M Tris-HCl (pH 8.0), […], 0.02% Na azide, 0.1 mg/ml phenylmethylsulfonylfluoride (PMSF), and 0.001 mg/ml Aprotinin]. Lysates were subjected to 10% SDS-PAGE followed by electrotransfer to nitrocellulose and immunoblotting with antibodies to GFP and p53 (Santa Cruz Biotechnology, Santa Cruz, Calif.). Antibody-labeled proteins were identified by chemiluminescence using ECL methodology (Amersham)(1). Assays for elevated caspase expression were performed using the Clontech (Palo Alto, Calif.) for caspase (CPP32) activity (2). As a positive control for the caspase activity assay, Mia-PaCa-2 cells were incubated with tumor necrosis factor (TNF) (Sigma, St. Louis, Mo.) at a concentration of 10 ng/ml for 24 h. In addition, to detect if significant cell necrosis occurred, the CytoTox96 assay was used (Promega, Madison, Wis.) for LDH released into the cell culture medium as performed on several breast cancer cell lines (2).

MiaPaCa-2 cells [2] = assay: Caspase (CPP32) activity assay as marker for apoptosis; assay type: cell-based, human; conditions: MiaPaCa-2 cells transfected with plasmid, FIG. 8A condition 3
Description: as §1

## ETFSDLWKLL [p53 17-26 peptide]
MiaPaCa-2 cells [1]
  LDH release: do not release LDH
MiaPaCa-2 cells [2]
  caspase expression versus untreated/background (condition 2): almost five times the background level
